In the supplement of paper PMC10307832 one finds relative viability data, which are given here for 48 cell lines.

What all share (test): relative viability (nuclei count vs DMSO), 5 days (fraction); higher = more cells survive
Compound in assay [1]: CN1CCN(CC1)C2=CC(=C(C=C2)NC3=NC=C4C(=N3)N(C5=CC=CC=C5C(=O)N4C)C)OC [XMD8-85] + COc1cccc2cc(-c3nc([C@H]4CC[C@H](C(=O)O)CC4)n4ncnc(N)c34)[nH]c12 [OSI-027] (partner 0.5 µM)
Put shortly:
(§1)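 Each reported value is a median over duplicate plates. It expresses relative viability: treated-well nuclei count divided by vehicle-well nuclei count. Lung cancer cell lines in 1536-well plates were dosed by pin tool a day after seeding, alone with one drug or with a fixed anchor-drug dose plus five library-drug doses (not always all listed) in √10 steps, and nuclei were counted after 5 days.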

Compound in assay [2]: CN1CCN(CC1)C2=CC(=C(C=C2)NC3=NC=C4C(=N3)N(C5=CC=CC=C5C(=O)N4C)C)OC [XMD8-85] + O=C(CCCCCCC(=O)Nc1ccccc1)NO [Vorinostat] (partner 1 µM)
Put shortly:
as §1

Compound in assay [3]: CN1CCN(CC1)C2=CC(=C(C=C2)NC3=NC=C4C(=N3)N(C5=CC=CC=C5C(=O)N4C)C)OC [XMD8-85] + C[C@]1(O)C[C@@H](c2nc(-c3ccc4ccc(-c5ccccc5)nc4c3)c3c(N)nccn32)C1 [Linsitinib] (partner 1 µM)
In outline:
as §1

Compound in assay [4]: CN1CCN(CC1)C2=CC(=C(C=C2)NC3=NC=C4C(=N3)N(C5=CC=CC=C5C(=O)N4C)C)OC [XMD8-85] + NC(=O)Nc1cc(-c2cccc(F)c2)sc1C(=O)N[C@H]1CCCNC1 [AZD7762] (partner 0.2 µM)
In outline:
as §1

Compound in assay [5]: CN1CCN(CC1)C2=CC(=C(C=C2)NC3=NC=C4C(=N3)N(C5=CC=CC=C5C(=O)N4C)C)OC [XMD8-85] + Nc1ncn([C@H]2C[C@H](O)[C@@H](CO)O2)c(=O)n1 [Decitabine] (partner 2 µM)
In outline:
as §1

Compound in assay [6]: CN1CCN(CC1)C2=CC(=C(C=C2)NC3=NC=C4C(=N3)N(C5=CC=CC=C5C(=O)N4C)C)OC [XMD8-85] + CC(C)C[C@H](NC(=O)[C@H](Cc1ccccc1)NC(=O)c1cnccn1)B(O)O [Bortezomib] (partner 0.002 µM)
In outline: as §1

Compound in assay [7]: CN1CCN(CC1)C2=CC(=C(C=C2)NC3=NC=C4C(=N3)N(C5=CC=CC=C5C(=O)N4C)C)OC [XMD8-85] + O=C(c1cc(Cc2n[nH]c(=O)c3ccccc23)ccc1F)N1CCN(C(=O)C2CC2)CC1 [Olaparib] (partner 8 µM)
Put shortly:
as §1

Compound in assay [8]: CN1CCN(CC1)C2=CC(=C(C=C2)NC3=NC=C4C(=N3)N(C5=CC=CC=C5C(=O)N4C)C)OC [XMD8-85] + C[C@@H](Oc1cc(-c2cnn(C3CCNCC3)c2)cnc1N)c1c(Cl)ccc(F)c1Cl [Crizotinib] (partner 1 µM)
In outline:
as §1

Compound in assay [9]: CN1CCN(CC1)C2=CC(=C(C=C2)NC3=NC=C4C(=N3)N(C5=CC=CC=C5C(=O)N4C)C)OC [XMD8-85] + CC(=O)c1c(C)c2cnc(Nc3ccc(N4CCNCC4)cn3)nc2n(C2CCCC2)c1=O [Palbociclib] (partner 0.5 µM)
In outline:
as §1

Compound in assay [10]: CN1CCN(CC1)C2=CC(=C(C=C2)NC3=NC=C4C(=N3)N(C5=CC=CC=C5C(=O)N4C)C)OC [XMD8-85] + CS(=O)(=O)N1CCN(Cc2cc3nc(-c4cccc5[nH]ncc45)nc(N4CCOCC4)c3s2)CC1 [Pictilisib] (partner 1 µM)
In outline:
as §1

Compound in assay [11]: CN1CCN(CC1)C2=CC(=C(C=C2)NC3=NC=C4C(=N3)N(C5=CC=CC=C5C(=O)N4C)C)OC [XMD8-85] + Cc1nc(NC(=O)N2CCC[C@H]2C(N)=O)sc1-c1ccnc(C(C)(C)C(F)(F)F)c1 [Alpelisib] (partner 2 µM)
Put shortly:
as §1

Compound in assay [12]: CN1CCN(CC1)C2=CC(=C(C=C2)NC3=NC=C4C(=N3)N(C5=CC=CC=C5C(=O)N4C)C)OC [XMD8-85] + Cc1nc(Nc2ncc(C(=O)Nc3c(C)cccc3Cl)s2)cc(N2CCN(CCO)CC2)n1 [Dasatinib] (partner 0.075 µM)
In outline:
as §1

Compound in assay [13]: CN1CCN(CC1)C2=CC(=C(C=C2)NC3=NC=C4C(=N3)N(C5=CC=CC=C5C(=O)N4C)C)OC [XMD8-85] + Nc1nc2[nH]cc(CCc3ccc(C(=O)N[C@@H](CCC(=O)O)C(=O)O)cc3)c2c(=O)[nH]1 [Pemetrexed] (partner 0.2 µM)
Put shortly: as §1

Compound in assay [14]: CN1CCN(CC1)C2=CC(=C(C=C2)NC3=NC=C4C(=N3)N(C5=CC=CC=C5C(=O)N4C)C)OC [XMD8-85] + CS(=O)(=O)CCNCc1ccc(-c2ccc3ncnc(Nc4ccc(OCc5cccc(F)c5)c(Cl)c4)c3c2)o1 [Lapatinib] (partner 2 µM)
In outline:
as §1

Compound in assay [15]: CN1CCN(CC1)C2=CC(=C(C=C2)NC3=NC=C4C(=N3)N(C5=CC=CC=C5C(=O)N4C)C)OC [XMD8-85] + N=C(N)NC(=N)NCCc1ccccc1 [Phenformin] (partner 250 µM)
In outline:
as §1

Compound in assay [16]: CN1CCN(CC1)C2=CC(=C(C=C2)NC3=NC=C4C(=N3)N(C5=CC=CC=C5C(=O)N4C)C)OC [XMD8-85] + CCNC(=O)c1noc(-c2cc(C(C)C)c(O)cc2O)c1-c1ccc(CN2CCOCC2)cc1 [Luminespib] (partner 0.01 µM)
The conditions noted are these: first compound 2.53 µM. Put shortly: as §1

Consider PC-14, for which the results for the relative viability in [1] (first compound 2.53 µM) and in [2] (first compound 2.53 µM) were 0.792 and 0.612, respectively.

Consider PC-3 [JPC-3], for which the relative viability in assay [3] (first compound 8 µM) worked out at 0.988; in assay [4] (first compound 0.08 µM) it was 0.703; in assay [5] (first compound 0.253 µM) it was 0.811.

Regarding NCI-H1666, the relative viability in assay [6] (first compound 8 µM) worked out at 0.753; in assay [7] (first compound 8 µM), 0.685.

Turning to Calu-6, the relative viability in [8] (first compound 2.53 µM) turned out to be 0.756.

Consider ABC-1, for which the relative viability was found to be 0.503 in assay [9] (first compound 8 µM), 0.425 in assay [10] (first compound 8 µM), 0.705 in assay [11] (first compound 8 µM) and 0.522 in assay [12] (first compound 0.253 µM).

Turning to NCI-H1734, the relative viability in assay [9] (first compound 0.8 µM) is 0.535; in assay [4] (first compound 8 µM), 0.547; in assay [13] (first compound 0.08 µM) it was 0.386; in assay [5] (first compound 0.08 µM), 0.524; in [7] (first compound 2.53 µM) it was 0.586.

For HCC-78, the relative viability in [14] (first compound 0.253 µM) stood at 0.625.

Consider NCI-H1792, for which the relative viability in [4] (first compound 0.253 µM) is 0.586.

As for NCI-H2405, the relative viability in assay [9] (first compound 0.253 µM) came out at 0.527; in assay [3] (first compound 0.08 µM) it was 0.991.

Consider NCI-H661, for which the relative viability in assay [9] (first compound 0.253 µM) amounted to 0.423; in assay [6] (first compound 0.8 µM), 0.834; in [14] (first compound 2.53 µM), 0.564; in assay [11] (first compound 0.08 µM) it was 0.606.

For LCLC-103H, in assay [1] (first compound 2.53 µM), the relative viability is 0.425.

On to NCI-H650, for which the relative viability amounted to 0.368 in assay [14] (first compound 8 µM), 0.879 in [10] (first compound 0.08 µM) and 0.511 in assay [15] (first compound 0.08 µM).

Regarding NCI-H2087, the relative viability in assay [6] (first compound 0.8 µM) was 0.813; in assay [7] (first compound 2.53 µM) it was 0.726.

With COR-L23, the values for the relative viability in assay [16] and in [1] (first compound 0.253 µM) were 0.634 and 0.819, respectively.

Consider ChaGo-K-1, for which the relative viability was 0.654 in assay [8] (first compound 8 µM), 0.621 in [12] (first compound 0.253 µM) and 0.356 in assay [15] (first compound 8 µM).

Regarding SK-LU-1, the relative viability in assay [1] (first compound 0.8 µM) was 0.392; in assay [10] (first compound 0.253 µM), 0.688; in assay [2] (first compound 0.08 µM) it was 0.761; in [2] (first compound 0.253 µM) it was 0.762; in assay [7] (first compound 0.8 µM) it was 0.435.

As for IA-LM, the relative viability in [6] (first compound 2.53 µM) was determined as 0.524; in assay [8] (first compound 2.53 µM) it was 0.541.

In the case of NCI-H2228, the relative viability was determined as 0.954 in assay [14] (first compound 2.53 µM) and 0.718 in assay [11] (first compound 0.08 µM).

For the cell line LCLC-97TM1, the values for the relative viability in [1] (first compound 0.253 µM) and in [12] (first compound 0.08 µM) were 0.396 and 0.842, respectively.

CAL-12T: the relative viability was determined as 0.719 in [14] (first compound 0.253 µM) and 0.622 in assay [4] (first compound 2.53 µM).

As to NCI-H2342, the relative viability in [1] (first compound 0.8 µM) was 0.687.

Consider COR-L 105, for which the relative viability in assay [16] came out at 0.492; in assay [1] (first compound 0.253 µM) it was 0.565; in [8] (first compound 0.08 µM) it was 0.782; in [11] (first compound 0.08 µM), 1.09; in assay [5] (first compound 0.08 µM), 0.712; in [7] (first compound 0.253 µM), 0.805.

For the cell line A549, the relative viability in assay [10] (first compound 2.53 µM) was 0.511.

For RERF-LC-KJ, the relative viability in assay [5] (first compound 0.08 µM) was found to be 0.718.

Consider NCI-H1651, for which, in assay [4] (first compound 2.53 µM), the relative viability worked out at 0.503.

As for H3255, the relative viability in [6] (first compound 0.8 µM) came out at 0.753; in assay [10] (first compound 0.8 µM) it was 0.589; in assay [15] (first compound 8 µM), 0.326; in assay [13] (first compound 0.253 µM), 0.567.

As to NCI-H1915, the relative viability in assay [4] (first compound 2.53 µM) was 0.743.

For the cell line LXF-289, the relative viability was found to be 0.663 in assay [16], 0.661 in assay [10] (first compound 0.253 µM) and 0.483 in assay [15] (first compound 8 µM).

For the cell line A-427, the relative viability in assay [4] (first compound 0.08 µM) was determined as 0.709.

For NCI-H1563, the relative viability turned out to be 0.842 in assay [6] (first compound 0.8 µM), 0.828 in assay [1] (first compound 0.253 µM) and 0.714 in assay [15] (first compound 2.53 µM).

On to NCI-H358, for which the relative viability in [3] (first compound 0.8 µM) was determined as 0.743; in assay [2] (first compound 0.08 µM), 0.654.

Take NCI-H1648: the relative viability in assay [13] (first compound 0.08 µM) stood at 0.712.

HCC-15: the relative viability in assay [1] (first compound 2.53 µM) turned out to be 0.712.

For NCI-H322M, the relative viability was 0.547 in assay [1] (first compound 0.253 µM), 0.727 in assay [11] (first compound 0.253 µM) and 0.727 in assay [15] (first compound 0.253 µM).

On to NCI-H1355, for which the relative viability in [9] (first compound 0.8 µM) was 0.621; in [11] (first compound 8 µM), 0.848; in assay [12] (first compound 8 µM) it was 0.577; in assay [4] (first compound 8 µM) it was 0.589.

EKVX: the relative viability in assay [1] (first compound 8 µM) was 0.688; in assay [13] (first compound 2.53 µM) it was 0.386.

As for NCI-H2009, the relative viability in assay [2] (first compound 0.8 µM) came out at 0.712; in [2] (first compound 8 µM) it was 0.524.

For the cell line NCI-H1703, the relative viability in assay [3] (first compound 0.8 µM) came to 0.826; in assay [7] (first compound 0.253 µM), 0.386.

Turning to HCC-366, the values for the relative viability in assay [8] (first compound 0.253 µM), in assay [3] (first compound 2.53 µM) and in assay [7] (first compound 2.53 µM) were 0.511, 0.616 and 0.343, respectively.

In the case of NCI-H23, the relative viability turned out to be 0.632 in assay [9] (first compound 0.253 µM), 0.413 in assay [3] (first compound 8 µM) and 0.625 in [13] (first compound 2.53 µM).

As to NCI-H1437, the relative viability in assay [15] (first compound 0.08 µM) was determined as 0.277; in [5] (first compound 2.53 µM), 0.589.

EMC-BAC-2: the relative viability in assay [8] (first compound 0.253 µM) was determined as 0.656; in [15] (first compound 0.8 µM) it was 0.511; in [5] (first compound 0.8 µM) it was 0.936.

For the cell line NCI-H2126, the results for the relative viability in assay [3] (first compound 0.253 µM), in assay [2] (first compound 0.253 µM) and in [2] (first compound 2.53 µM) were 0.765, 0.835 and 0.871, respectively.

NCI-H1623: in [15] (first compound 8 µM), the relative viability is 0.487.

In the case of NCI-H1755, in assay [1] (first compound 2.53 µM), the relative viability came to 0.785.

Consider NCI-H2085, for which the relative viability in assay [6] (first compound 8 µM) worked out at 0.753.

EBC-1: the relative viability in assay [11] (first compound 0.8 µM) was found to be 0.827.

Regarding NCI-H2170, the relative viability in [1] (first compound 2.53 µM) worked out at 0.868; in assay [11] (first compound 0.8 µM) it was 0.848.
